According to patent publication US6392119:

Target: reconstituted barnase (bn3 + bn5 expressed in the same cell) (Bacillus amyloliquifaciens)
Experiment: cell-based or functional assay
Settings: scale: (measured cpm minus background) × .001 per tobacco leaf disk

barstar (from UniProt P11540 1-90) showed a Luciferase activity, bn3 + bn5 + barstar, average of 540, a Luciferase activity, bn3 + bn5 + barstar, shot 1 of 89 and a Luciferase activity, bn3 + bn5 + barstar, shot 2 of 133. For the same substance, the Luciferase activity, bn3 + bn5 + barstar, shot 3 was 143, the Luciferase activity, bn3 + bn5 + barstar, shot 4 was 100 and the Luciferase activity, bn3 + bn5 + barstar, shot 5 was 165. The Luciferase activity, bn3 + bn5 + barstar, shot 6 was 959, the Luciferase activity, bn3 + bn5 + barstar, shot 7 was 1260 and the Luciferase activity, bn3 + bn5 + barstar, shot 8 was 1360. For the same substance, the Luciferase activity, bn3 + bn5 + barstar, shot 9 was 977 and the Luciferase activity, bn3 + bn5 + barstar, shot 10 was 219.
